The target of this assay is human 5HT transporters [(h)SERT] (Homo sapiens, UniProt P31645). Put plainly: Inhibition of [3H]serotonin uptake in HEK293 cells expressing hSERT. The following applies: read-out: monoamine uptake inhibition IC50 [3H]5HT.

The chains behind the UniProt entries cited, without tags or fusion partners.
UniProt P31645, whole entry: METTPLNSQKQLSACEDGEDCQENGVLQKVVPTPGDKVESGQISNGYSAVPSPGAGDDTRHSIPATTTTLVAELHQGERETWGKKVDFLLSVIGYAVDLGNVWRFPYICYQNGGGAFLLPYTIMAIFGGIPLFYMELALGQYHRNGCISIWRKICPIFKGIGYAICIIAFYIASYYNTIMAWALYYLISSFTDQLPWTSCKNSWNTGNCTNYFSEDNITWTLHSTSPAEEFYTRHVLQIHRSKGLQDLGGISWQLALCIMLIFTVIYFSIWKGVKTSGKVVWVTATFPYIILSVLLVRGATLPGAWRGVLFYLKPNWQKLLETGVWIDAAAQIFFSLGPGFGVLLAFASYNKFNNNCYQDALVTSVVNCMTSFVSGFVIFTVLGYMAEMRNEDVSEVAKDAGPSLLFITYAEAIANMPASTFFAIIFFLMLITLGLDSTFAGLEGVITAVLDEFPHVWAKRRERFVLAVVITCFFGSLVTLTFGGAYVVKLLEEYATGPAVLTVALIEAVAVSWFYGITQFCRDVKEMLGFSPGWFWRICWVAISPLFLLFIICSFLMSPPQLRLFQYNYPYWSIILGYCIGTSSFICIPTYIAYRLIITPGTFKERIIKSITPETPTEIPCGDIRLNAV

Some results are limits rather than exact numbers.

A word on the IC50: it is the point on the concentration scale where inhibition reaches its midpoint. `C[C@@H]1NC(C)(C)CO[C@@]1(O)c1cccc(Cl)c1` [(2S,3S)-4a, (2S,3S)-2-(3-Chlorophenyl)-3,5,5-trimethylmorpholin-2-ol]: the IC50 was above 10 µM.
Take `C[C@H]1NC(C)(C)CO[C@]1(O)c1cccc(Cl)c1` [(2R,3R)-4a, (2R,3R)-2-(3-Chlorophenyl)-3,5,5-trimethylmorpholin-2-ol]: the IC50 is above 10 µM.

The values are drawn from article PMC2895766 (2010).
